Measurements published in patent publication US5328902A, “7-(substituted)-9-[(substituted glycyl)amido]-6-demethyl-6-deoxytetracyclines” (American Cyanamid Co., priority 1992, dated 1994).

Test system: TetM S30 (tetM protected ribosomes, derivative of MRE600 containing the tetM determinant)
Assay: E. coli in vitro protein translation system, TetM S30
Details: for inhibition of protein synthesis occurring on tetM protected ribosomes: coupled transcription and translation system

Compound | % Inhibition TetM S30 (Conc. 0.06 mg/ml) | % Inhibition TetM S30 (Conc. 1.0 mg/ml) | inhibition of protein synthesis occurring on tetM protected ribosomes
[4S-(4alpha,12aalpha)]-4,7-Bis(dimethylamino)-1,4,4a,5,5a,6,11,12a-octahydro-3,10, 12,12a-tetrahydroxy-1,11-dioxo-9-[[(2-propenylamino)acetyl]amino]-2-naphthacenecarboxamide dihydrochloride | 83% | 98% | effective at inhibiting
CC1CCN(CC(=O)Nc2cc(N(C)C)c3c(c2O)C(=O)C2=C(O)C4(O)C(=O)C(C(N)=O)=C(O)C(N(C)C)C4CC2C3)CC1.Cl.Cl (stereo not drawn) [G, [7S-(7alpha,10aalpha)]-N-[9-(Aminocarbonyl)4,7-bis(dimethylamino)-5,5a,6,6a,7,10,10a,12-octahydro-1,8,10a,ll-tetrahydroxy-10,12-dioxo-2-naphthacenyl]-4-methyl-l-piperidineacetamide dihydrochloride] | 83% | 99% | effective at inhibiting
[4S-(4alpha,12aalpha)]-4,7-Bis(dimethylamino)-1,4,4a,5,5a,6,11,12a-octahydro-3,10, 12,12a-tetrahydroxy-9-[[[(3-methoxypropyl)amino]acetyl]amino]-1,11-dioxo-2-naphthacenecarboxamide dihydrochloride | 85% | – | effective at inhibiting
[4S-(4alpha,12aalpha)]-4,7-Bis(dimethylamino-1,4,4a,5,5a,6,11,12a-octahydro-3,10, 12,12a-tetrahydroxy-9-[[[(2-(methoxyethyl)amino]acetyl]amino]-1,11-dioxo-2-naphthacenecarboxamide dihydrochloride | 91% | 97% | effective at inhibiting
CN(C)c1ccc(O)c2c1C[C@H]1C[C@H]3[C@H](N(C)C)C(O)=C(C(N)=O)C(=O)[C@@]3(O)C(O)=C1C2=O [O, Minocycline, reference compound] | 0% | – | unable to inhibit
[4S-(4alpha,12aalpha)]-9-[[[(2,2-Diethoxyethyl)amino]acetyl]amino]-4,7-bis(dimethylamino)-1,4,4a,5,5a,6,11,12a-octahydro-3,10, 12,12a-tetrahydroxy-1,11-dioxo-2-naphthacenecarboxamide dihydrochloride [Compound C] | 65% | 96% | effective at inhibiting
